# Values quoted from earlier work in patent US6552014B2, “Methods of inhibiting platelet activation with selective serotonin reuptake inhibitors” (HeartDrug Research, L.L.C., priority 1999, dated 2003).
# Details: in vivo; cited from earlier work
smiles,measurement,value
CN[C@H]1CC[C@@H](c2ccc(Cl)c(Cl)c2)c2ccccc21 [sertraline],equilibration of serum levels,within approximately one week
